# In patent publication US12583858B2 (Genentech, Inc., priority 2015, dated 2026):
# Sequences of proteins named here, by UniProt entry; tags and fusion partners are left off.
# UniProt P48775, whole entry: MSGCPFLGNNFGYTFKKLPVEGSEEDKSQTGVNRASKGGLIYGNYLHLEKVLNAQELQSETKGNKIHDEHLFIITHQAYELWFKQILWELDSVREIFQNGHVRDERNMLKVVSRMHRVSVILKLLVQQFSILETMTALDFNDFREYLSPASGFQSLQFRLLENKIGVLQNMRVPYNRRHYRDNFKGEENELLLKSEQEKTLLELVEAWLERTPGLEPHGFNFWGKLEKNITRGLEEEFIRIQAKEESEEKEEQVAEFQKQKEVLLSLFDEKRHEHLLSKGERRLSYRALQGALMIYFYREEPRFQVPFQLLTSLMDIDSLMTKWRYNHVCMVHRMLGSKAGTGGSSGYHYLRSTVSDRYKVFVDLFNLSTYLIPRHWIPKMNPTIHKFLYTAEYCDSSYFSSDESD
# Molecular target: TDO2 (Homo sapiens, UniProt P48775)
# Assay: TDO2 cell assay (NFK GreenScreen, SW48 cells)
# Details: read-out: TDO2 Cell Fluor EC50; SW48 cells (high TDO expressing), 200 uM tryptophan, 24 hours; Table 3
row,SMILES,EC50
1,CC1(C)CCC(O)(C2c3ccccc3-c3cncn32)CC1 (centres unmarked),0.76 µM
2,OC1(C2c3ccccc3-c3cncn32)CCCCCC1 (centres unmarked),0.31 µM
3,O[C@H]1COCC[C@@H]1[C@@H]1c2ccccc2-c2cncn21,> 25 µM
4,O[C@H]1COCC[C@@H]1[C@H]1c2ccccc2-c2cncn21,1.3 µM

# Continued, values first:
row,EC50,SMILES
1,0.078 µM,"OC1COCCC1C1c2ccccc2-c2cncn21 (single isomer, unassigned) [06b]"
2,11 µM,"OC1COCCC1C1c2ccccc2-c2cncn21 (single isomer, unassigned) [06c]"
3,15 µM,"CC(C)S(=O)(=O)N1CCC(C2c3ccccc3-c3cncn32)C(O)C1 (single isomer, unassigned) [80c]"

# Same assay, conditions: read-out: TDO2 cell Fluor EC50; SW48 cells (high TDO expressing); TDO selectivity table
row,EC50,SMILES
1,0.078 µM,"OC1COCCC1C1c2ccccc2-c2cncn21 (single isomer, unassigned) [06b]"
